Biological target: Cannabinoid receptor 1 (Homo sapiens, UniProt P21554)
Assay: Allosteric modulator activity at human CB1 receptor expressed in CHO-RD-HGA16 cells co-expressing Galpha16 assessed as suppression of 100 nM CP55,940-induced calcium mobilization pre-incubated for 15 mins by Calcium 5 dye based FLIPR assay relative to control
Format: functional, cell-based

Protein sequences, listed by entry. Tags and fused reporters are not part of them.
UniProt P21554, whole entry: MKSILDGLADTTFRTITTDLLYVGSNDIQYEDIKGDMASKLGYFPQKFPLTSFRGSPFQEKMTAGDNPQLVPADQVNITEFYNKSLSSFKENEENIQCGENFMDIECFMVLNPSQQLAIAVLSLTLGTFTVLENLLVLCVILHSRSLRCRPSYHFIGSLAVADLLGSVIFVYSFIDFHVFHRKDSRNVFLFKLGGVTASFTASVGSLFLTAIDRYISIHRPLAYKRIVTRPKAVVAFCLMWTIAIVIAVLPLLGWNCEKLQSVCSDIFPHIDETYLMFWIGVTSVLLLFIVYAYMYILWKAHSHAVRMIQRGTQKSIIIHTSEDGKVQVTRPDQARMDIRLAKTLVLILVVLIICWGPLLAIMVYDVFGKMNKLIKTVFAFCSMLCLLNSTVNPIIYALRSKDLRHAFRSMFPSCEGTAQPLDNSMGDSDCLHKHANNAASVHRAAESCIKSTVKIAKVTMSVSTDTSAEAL

## O=C(Nc1ccc(Cl)cc1)Nc1cc(-c2ccccc2)ccn1
  inhibition: 33%

Reference: ChEMBL document CHEMBL4414612, “Synthesis and Pharmacological Evaluation of 1-Phenyl-3-Thiophenylurea Derivatives as Cannabinoid Type-1 Receptor Allosteric Modulators” (J Med Chem, 2019)
